Laboratory results as given in US7323490B2.

Target: human PDE6D (Homo sapiens, UniProt O43924)

| Kd | Compound |
| --- | --- |
| 615 nM | CC(C)c1c(C(=O)Nc2ccccc2)c(-c2ccccc2)c(-c2ccc(F)cc2)n1CCOCCOCCOCCOCCOCCOCCOCCN |
| 900 nM | c1ccc(CSc2nc(-c3ccccc3)c(-c3ccccc3)[nH]2)cc1 |
